Biological target: T1, RXRβ (Homo sapiens, UniProt P28702)
T1 construct: an expression construct including a full length RXRα, RXRβ, or RXRy; expressed in transfected cells; host or cells: CV-1
T1 sequence (P28702 1-533): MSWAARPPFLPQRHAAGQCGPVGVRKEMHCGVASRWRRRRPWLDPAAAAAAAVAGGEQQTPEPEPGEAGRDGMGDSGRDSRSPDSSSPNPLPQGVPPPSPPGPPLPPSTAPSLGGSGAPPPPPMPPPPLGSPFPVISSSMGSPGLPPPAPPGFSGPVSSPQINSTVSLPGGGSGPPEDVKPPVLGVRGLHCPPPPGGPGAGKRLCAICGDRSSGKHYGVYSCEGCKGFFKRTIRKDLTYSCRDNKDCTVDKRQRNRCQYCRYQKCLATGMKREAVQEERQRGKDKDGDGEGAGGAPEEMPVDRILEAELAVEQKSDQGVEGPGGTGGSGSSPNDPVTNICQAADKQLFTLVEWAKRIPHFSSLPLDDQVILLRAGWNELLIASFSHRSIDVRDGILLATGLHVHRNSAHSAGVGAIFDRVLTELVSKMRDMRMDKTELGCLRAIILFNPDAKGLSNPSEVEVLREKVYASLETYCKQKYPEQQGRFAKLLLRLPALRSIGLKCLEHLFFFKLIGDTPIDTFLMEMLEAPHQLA
Test: RXR homodimer transactivation assay (rCRBPII/RXRE-tk-Luc reporter, CV-1 cells)
Format: cell-based

SMILES: CC(/C=C/[C@@H]1C[C@]1(C)c1ccc2c(c1)C(C)(C)CCC2(C)C)=C\C(=O)O [IRX4204, 3,7-dimethyl-6(S),7(S)-methano,7-[1,1,4,4-tetramethyl-1,2,3,4-tetrahydronaphth-7-yl]2(E),4(E) heptadienoic acid]
- Efficacy (% of 1 µM IRX4204) RXRβ: 0.47 ±0.05 100 % of 1 µM IRX4204
